Each structure is given as a SMILES string.

In the experiment the test system is sEH. The conditions noted are these: AEPU-treated ApoE -/- mice, percent of control, p<0.05.

Regarding `CCOCCOCCOCCCCCNC(=O)NC12CC3CC(CC(C3)C1)C2` [AEPU, 1-adamantan-3-(5-(2-(2-ethylethoxy)ethoxy)pentyl)urea], the “Plasma 14,15-EET and 9,10-EpOME levels versus control” value was “significantly higher”.
